Measured values from ChEMBL document CHEMBL1153304, “2,4-Diaminopyridine delta-opioid receptor agonists and their associated hERG pharmacology” (Bioorg Med Chem Lett, 2009).

These compounds were tested against Delta-type opioid receptor (Homo sapiens, UniProt P41143) (assay: Agonist activity at delta opioid receptor expressed in CHO cells assessed as inhibition of forskolin-stimulated cAMP production by ALPHAscreen assay).

Point of comparison: `Nc1ccnc(N2CCC(n3c(=O)n(CC4CC4)c4cccnc43)CC2)c1`, EC50 41 nM. Against it:
- Nc1ccnc(N2CCC(n3c(=O)n(Cc4ccccc4)c4cccnc43)CC2)c1 — within 1.5-fold, 28 nM
- Nc1ccnc(N2CCC(n3c(=O)n(-c4ccccc4)c4cccnc43)CC2)c1 — 2.6-fold lower, 16 nM
- COc1ccc(-n2c(=O)n(C3CCN(c4cc(N)ccn4)CC3)c3ncccc32)cc1 — 14-fold lower, 3 nM
